{
  "source": "patent US7435386B2",
  "about": "“Reagentless and reusable biosensors with tunable differential binding affinities and methods of making” (dated 2008)",
  "origin": "cited, not measured here",
  "conditions": "cited from earlier work",
  "note": "Some compounds may have been tested in ways that are not shown here.",
  "data": [
    {"smiles": "Cc1c([N+](=O)[O-])cc([N+](=O)[O-])cc1[N+](=O)[O-]", "values": [
      {"measurement": "TNT solubility in aqueous solutions", "result": 100, "unit": "µg/mL"}
    ]}
  ]
}
